Assay results taken from ChEMBL document CHEMBL1139745, “Synthesis and biological study of 4-aminopyrimidine-5-carboxaldehyde oximes as antiproliferative VEGFR-2 inhibitors” (Bioorg Med Chem Lett, 2006).

Experiments:
Type in all cases: functional, cell-based
Details in all cases: Homo sapiens
HeLa = assay: Antiproliferative activity against HeLa cells
HCT-116 = assay: Antiproliferative activity against HCT116 cells
A-375 = assay: Antiproliferative activity against A375 cells

IC50 (HeLa) [nM] | IC50 (HCT-116) [nM] | IC50 (A-375) [nM] | SMILES
28 | 28 |  | C#CCO/N=C/c1c(N)ncnc1Oc1ccc2[nH]c(C)cc2c1F
3230 | 4250 | 501 | Cc1cc2c(F)c(Oc3ncnc(N)c3/C=N/OCCN(C)C)ccc2[nH]1
699 | 1160 | 339 | Cc1cc2c(F)c(Oc3ncnc(N)c3/C=N/OCCN3CCOCC3)ccc2[nH]1
4330 | 4290 | 1600 | Cc1cc2c(F)c(Oc3ncnc(N)c3/C=N/OCCCN(C)C)ccc2[nH]1
